PDI inh – inhibitors of human PDI, primary screen, biochemical, turbidity, single point, plate reader. Protein disulfide-isomerase (Homo sapiens), P07237. PDI insulin aggregation turbidity, A650, 90 min. inhibition, % at 10 µM. hit rate 0.052% among 350,000;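 active = mean inhibition across replicates of 30% or more, whatever share of single replicates reach that level; inconclusive = mean inhibition below 30% while every single replicate reaches 30%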
ERp5 inh – inhibitors of ERp5-driven insulin aggregation, primary screen, biochemical, turbidity, absorbance 650 nm, single point | Protein disulfide-isomerase A6 (Homo sapiens), Q15084 | 90 min | inhibition, % at 9.99 µM | hit rate 0.05% among 350,000 | AID 651711, 2012;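 active = mean replicate inhibition above about 25%, with every replicate also reaching it, limit read from the data, passing the limit was not always enough; inconclusive = only one of those two criteria met; inactive = neither criterion met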
UUG fidelity – modulators of start codon recognition fidelity in yeast; S. cerevisiae UUG-firefly luciferase reporter, luminescence/redox ratio; activity score, % at 18.7 µM; 0.13% of 350,000 active;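 active = replicate mean at a twofold rise or more, about +100% in these data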;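 also: firefly luciferase made from a UUG start codon reports start codon fidelity; reporter light over untreated wells divided by growth signal over untreated wells; some hits fall short of that in this replicate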
SIRT5 block – SIRT5 desuccinylase inhibitors, primary screen, biochemical, fluorescence imaging, single point, set 5; NAD-dependent protein deacylase sirtuin-5, mitochondrial (Homo sapiens), Q9NXA8; Purified SirT5, succinyl-peptide AMC, trypsin-coupled fluorescence; inhibition, % at 15 µM; hit rate 1.1% among 330,000; AID 652115, 2013; in the data active = inhibition above about 15%; inconclusive = no clear call, values can overlap the other calls
FGF22 binding – binders of human FGF22 protein, primary screen, FGF22 synaptogenesis inhibitor project, biophysical, thermal shift, single point | hit rate 1.5% among 340,000 | Fibroblast growth factor 22 (Homo sapiens), Q9HCT0 | activity (Tm shift, normalised), % at 9.99 µM | AID 651658, 2012 | recombinant FGF22 thermal shift, SYPRO orange fluorescence; percent of sucrose octasulfate shift, DMSO zero;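 active = mean Tm shift, scaled 0 neutral to 100 positive control, at about 1.3% or above, every replicate too, limit read from the data; inconclusive = no clear call, values can overlap the other calls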
S100A4 MyoIIA – inhibitors of S100A4-myosin IIA peptide binding, primary screen, biochemical, fluorescence polarization, TAMRA-MyoIIA peptide; hit rate 0.14% among 360,000; inhibition, % at 10.7 µM; Protein S100-A4 (Homo sapiens), P26447;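 active = mean inhibition of at least 70% across replicates, with every replicate also reaching that level; inconclusive = mean inhibition reaches 70% but some replicates fall short; inactive = mean inhibition below 70%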
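Test system: S100A4 monomer protein; Medium: HEPES pH 7.2 with CaCl2, KCl, NaCl, DTT, Triton; Probe or stimulus: TAMRA-labelled myosin IIA heavy-chain peptide probe, 5 nM; Doses: one dose per compound; Times: polarization read 5 min after assay mix addition, stable 5–60 min; Benchmarks: neutral control DMSO, positive control TFP.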
* hit, by the source's call; u = inconclusive; x = no result. Compounds with a hit are over-represented: about 2.2% of the library has one in this group of screens.

cpd	structure	PDI inh	ERp5 inh	UUG fidelity
1	C[C@H]1CN([C@@H](C)CO)C(=O)c2cccc(NS(=O)(=O)c3cn(C)cn3)c2O[C@@H]1CN(C)Cc1ccc(C(=O)Nc2ccccc2N)cc1	x	8	x
2	O=C(Nc1ccccc1)SC1CCCCC1	-1	3	-7
3	CN(C(=O)Nc1ccccc1)C1CCCCC1	23	6	0
4	O=C(O)c1cccc(N/N=C/C2=C(Cl)c3cc(Cl)ccc3SC2)c1	14	1	x
5	CN(C)c1ccc(C2Nc3ccccc3C(=O)N2NS(C)(=O)=O)cc1 (stereo not drawn)	-68	1	-9
6	CC(=O)NN1C(=O)c2ccccc2NC1c1ccc(N(C)C)cc1 (stereo not drawn)	12	5	-15
7	CCC(=O)Nc1ccc2c(c1)OC[C@H](C)N(C(=O)Cc1ccccn1)C[C@H](C)[C@@H](OC)CN(C)C2=O	x	5	7
8	CC(C)(C)n1nnnc1C(c1cccnc1)N1CCOCC1 (stereo not drawn)	4	3	6
9	CC(C)(C)n1nnnc1C(c1cccc(C(F)(F)F)c1)N1CCOCC1 (stereo not drawn)	1	2	x
10	CC(C)C#Cc1ccc2c(c1)O[C@@H](CN(C)C(=O)Cc1ccccn1)[C@@H](C)CN([C@H](C)CO)S2(=O)=O	x	-10	10
11	CN(C)C(=O)c1cc(C(=O)c2ccc(Cl)cc2Cl)c[nH]1	4	2	-9
12	NC(=O)c1cc(C(=O)c2ccc(Cl)cc2Cl)c[nH]1	-1	0	x
13	C[C@@H]1CCCCO[C@@H](CN(C)C(=O)Nc2ccc(F)cc2)[C@@H](C)CN([C@H](C)CO)C(=O)c2cc(NC(=O)Nc3ccc(F)cc3)ccc2O1	x	8	-5
14	CCCc1cc(=O)n2[nH]c(C(F)(F)F)nc2n1	11	2	-11
15	C/C=C/c1ccc([C@@H]2[C@@H](CO)N(C(=O)C3CCCCC3)C23CN(C(=O)NC(C)C)C3)cc1	x	1	x

cpd	SIRT5 block	FGF22 binding	S100A4 MyoIIA
1	-8	0	-10
2	x	43*	3
3	x	0	4
4	1	43*	0
5	31*	0	4
6	-10	0	-3
7	8	0	-37
8	20*	0	1
9	1	0	-1
10	4	0	5
11	8	0	-3
12	-2	44*	0
13	1	-1	-6
14	0	43*	-3
15	1	0	1

Compounds listed so far that have fluorine (3):
cpd	structure	PDI inh	ERp5 inh	UUG fidelity
9	CC(C)(C)n1nnnc1C(c1cccc(C(F)(F)F)c1)N1CCOCC1 (stereo not drawn)	1	2	x
13	C[C@@H]1CCCCO[C@@H](CN(C)C(=O)Nc2ccc(F)cc2)[C@@H](C)CN([C@H](C)CO)C(=O)c2cc(NC(=O)Nc3ccc(F)cc3)ccc2O1	x	8	-5
14	CCCc1cc(=O)n2[nH]c(C(F)(F)F)nc2n1	11	2	-11

cpd	SIRT5 block	FGF22 binding	S100A4 MyoIIA
9	1	0	-1
13	1	-1	-6
14	0	43*	-3

(listing goes on)
cpd	structure	PDI inh	ERp5 inh	UUG fidelity
16	CCCCn1c(N)c(N(CC(C)C)C(=O)CSCc2ccc(Cl)c(Cl)c2)c(=O)[nH]c1=O	-6	3	44
17	CCC(/C=C1\Sc2ccc(OC)cc2N1CC)=C\c1sc2ccc(OC)cc2[n+]1CCCS(=O)(=O)[O-]	-14	-1	3
18	CCC(/C=C1\Sc2ccc(OC)cc2N1CCO)=C\c1sc2ccc(OC)cc2[n+]1CCO	-10	-2	-8
19	COc1ccccc1C#Cc1ccc([C@H]2[C@@H](CO)N3CCCCN(C(=O)C4CCCC4)C[C@@H]23)cc1	x	1	-4
20	COc1ccccc1NC(=O)N1CCCCN2[C@H](C1)[C@@H](c1ccc(C#CC3CCCC3)cc1)[C@@H]2CO	x	9	0
21	COc1ccccc1NC(=O)N1CCCCN2[C@H](C1)[C@@H](c1ccc(C#CC3CC3)cc1)[C@@H]2CO	x	-2	x
22	CC(C)NC(=O)Nc1ccc2c(c1)C(=O)N([C@@H](C)CO)C[C@@H](C)[C@@H](CN(C)C(=O)CCC(F)(F)F)OCCCC[C@@H](C)O2	x	0	x
23	CN(c1ccccc1)c1nc(N)c(C#N)c(CC#N)c1C#N	-5	x	4
24	N#CCc1c(C#N)c(N)nc(Nc2ccccc2)c1C#N	-1	-6	-16
25	C[C@@H]1CN([C@H](C)CO)C(=O)Cc2cc(NC(=O)Nc3cccc4ccccc34)ccc2O[C@@H]1CN(C)S(=O)(=O)c1ccc(Cl)cc1	x	1	x
26	O=C(c1cc(F)c(F)c(F)c1F)N1CCN(C(=O)C2CCCO2)CC1 (stereo not drawn)	11	2	x
27	C[C@@H]1CN([C@@H](C)CO)C(=O)Cc2cc(NC(=O)CCCCCC(=O)Nc3ccccc3N)ccc2O[C@H]1CN(C)C	x	6	51
28	COc1ccc(-c2nn(-c3ccccc3)cc2C(=O)OCC(=O)c2ccc(C)c([N+](=O)[O-])c2)cc1	7	-6	x
29	COc1ccc(-c2cc(C(=O)OCC(=O)c3ccc(C)c([N+](=O)[O-])c3)c3ccccc3n2)cc1	3	x	-5
30	CC(=O)N(C)C[C@@H]1Oc2ncc(C#C[C@@H](C)O)cc2C(=O)N([C@H](C)CO)C[C@H]1C	x	-4	-15

cpd	SIRT5 block	FGF22 binding	S100A4 MyoIIA
16	17*	0	-3
17	-2	0	99*
18	-2	0	-59
19	19*	-1	-2
20	16*	-1	1
21	6	x	81*
22	2	0	7
23	x	x	x
24	17*	0	3
25	1	-1	2
26	x	44*	-1
27	4	1	2
28	0	43*	-2
29	x	x	x
30	-4	1	6

Going on with the list.
cpd	structure	PDI inh	ERp5 inh	UUG fidelity
31	CCn1cc(C(=O)O)c(=O)c2cnc(N3CCN(C(=S)NC(=O)c4ccc(F)c(F)c4)CC3)nc21	12	u	-10
32	CCn1cc(C(=O)O)c(=O)c2cnc(N3CCN(C(=S)NC(=O)c4ccc(OC)cc4)CC3)nc21	-8	2	-10
33	COC(=O)C[C@H]1C[C@@H]2c3cc(NC(=O)Nc4ccc(OC)cc4)ccc3O[C@@H]2[C@@H](CO)O1	x	x	-5
34	Cc1cc(-c2nnc(SCC(=O)c3ccc(Cl)cc3)o2)no1	-5	-1	-17
35	CN(C)Cc1c(O)ccc2c(-c3ccccc3)cc(=O)oc12	1	-4	x
36	CN(C)S(=O)(=O)c1ccc2c(c1)nc(CCC(=O)NCC(=O)Nc1ccc(F)c(F)c1F)n2C	-8	6	-11
37	C[C@H](CO)N1C[C@H](C)[C@H](CN(C)S(=O)(=O)c2ccc(F)cc2)Oc2c(NC(=O)Nc3cccc4ccccc34)cccc2C1=O	x	4	x
38	CO[C@@H]1CN(C)C(=O)c2cc(NC(C)=O)ccc2OC[C@H](C)N(Cc2cccc(F)c2)C[C@@H]1C	x	-3	9
39	O=C1NCCN(Cc2ccc(Cl)c(F)c2)C1CC(=O)N1CCCO1 (stereo not drawn)	-2	6	x

cpd	SIRT5 block	FGF22 binding	S100A4 MyoIIA
31	-1	0	-7
32	29*	0	0
33	x	0	x
34	5	44*	5
35	2	43*	-7
36	x	44*	-6
37	6	-1	-11
38	-1	x	1
39	-2	43*	2
